{"source": "patent US11083714B2", "about": "“Selective anti-cancer agent effective for prevention and treatment” (Molecular International Research, Inc., priority 2018, dated 2021)", "experiment": "Stability and water solubility of the salt"}
{"substance": "12H-indolo[2,3-a]quinolizin-5-ylium sulfate [sulfate salt of de-ethylflavopereine]", "values": [{"measurement": "stability and water solubility", "result": "stable and water soluble"}]}
